# Values quoted from earlier work, collected in patent publication US8946148B2, “Modified insulin polypeptides and their uses” (Ambrx, Inc., priority 2007, dated 2015).
# Conditions: pH range from 4.2 and 6.6
substance,measurement,value
insulin,solubility,clear reduction
